Literature values, collected in article PMC5372507.

Experiments:
CD146 (Homo sapiens) = CD146 (Homo sapiens) (UniProt P43121)
Unc5B (Homo sapiens) = Unc5B (Homo sapiens) (UniProt Q8IZJ1)

Kd (CD146 (Homo sapiens)): 1.3 nM
Kd (Unc5B (Homo sapiens)): 5.1 nM
Substance: Netrin-1 (from UniProt O95631)
